Source: PubChem BioAssay (EPA / NIEHS)
The list shows a part of the results, in another mix than the full data. Activity calls are given as the source filed them. How the source made its calls: active means hit-call score of the fitted dose curve at least 0.9, where 1 is the maximum; inactive means score below 0.9.

Protein sequences, listed by entry. Tags and fused reporters are not part of them.
UniProt Q00613, whole entry: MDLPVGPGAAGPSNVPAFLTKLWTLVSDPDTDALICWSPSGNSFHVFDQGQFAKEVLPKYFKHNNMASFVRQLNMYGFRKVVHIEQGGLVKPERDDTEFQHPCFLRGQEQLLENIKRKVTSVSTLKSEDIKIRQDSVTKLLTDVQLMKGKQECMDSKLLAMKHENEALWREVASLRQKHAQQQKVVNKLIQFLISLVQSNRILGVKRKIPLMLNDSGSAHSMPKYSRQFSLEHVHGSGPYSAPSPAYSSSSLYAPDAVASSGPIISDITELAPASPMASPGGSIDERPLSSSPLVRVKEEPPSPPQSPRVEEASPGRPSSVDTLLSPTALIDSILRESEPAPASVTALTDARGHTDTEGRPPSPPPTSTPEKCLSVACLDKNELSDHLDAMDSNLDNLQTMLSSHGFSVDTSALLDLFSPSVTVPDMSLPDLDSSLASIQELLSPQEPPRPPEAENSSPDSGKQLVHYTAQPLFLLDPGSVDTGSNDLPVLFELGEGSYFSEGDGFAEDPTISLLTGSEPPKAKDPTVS
UniProt P08047, whole entry: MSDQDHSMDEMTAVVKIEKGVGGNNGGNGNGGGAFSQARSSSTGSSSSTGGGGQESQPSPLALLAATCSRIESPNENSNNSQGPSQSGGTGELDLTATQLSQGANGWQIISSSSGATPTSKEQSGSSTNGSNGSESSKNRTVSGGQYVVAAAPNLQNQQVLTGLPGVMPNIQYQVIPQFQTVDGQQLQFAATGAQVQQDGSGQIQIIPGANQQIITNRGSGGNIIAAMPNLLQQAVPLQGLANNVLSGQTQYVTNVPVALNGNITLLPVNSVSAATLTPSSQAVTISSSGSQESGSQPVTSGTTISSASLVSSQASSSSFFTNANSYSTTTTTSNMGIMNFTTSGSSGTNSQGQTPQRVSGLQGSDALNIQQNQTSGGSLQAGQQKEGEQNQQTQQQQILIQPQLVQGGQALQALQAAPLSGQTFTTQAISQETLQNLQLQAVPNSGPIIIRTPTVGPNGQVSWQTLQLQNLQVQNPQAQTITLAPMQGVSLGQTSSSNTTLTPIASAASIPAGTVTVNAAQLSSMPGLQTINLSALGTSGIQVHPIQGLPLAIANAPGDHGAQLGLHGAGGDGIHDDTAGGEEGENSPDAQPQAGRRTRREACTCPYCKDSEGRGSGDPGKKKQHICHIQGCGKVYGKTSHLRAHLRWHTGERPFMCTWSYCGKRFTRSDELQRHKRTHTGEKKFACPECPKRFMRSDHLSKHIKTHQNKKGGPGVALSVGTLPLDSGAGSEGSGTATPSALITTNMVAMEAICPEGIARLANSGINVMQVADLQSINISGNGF
UniProt P40763, whole entry: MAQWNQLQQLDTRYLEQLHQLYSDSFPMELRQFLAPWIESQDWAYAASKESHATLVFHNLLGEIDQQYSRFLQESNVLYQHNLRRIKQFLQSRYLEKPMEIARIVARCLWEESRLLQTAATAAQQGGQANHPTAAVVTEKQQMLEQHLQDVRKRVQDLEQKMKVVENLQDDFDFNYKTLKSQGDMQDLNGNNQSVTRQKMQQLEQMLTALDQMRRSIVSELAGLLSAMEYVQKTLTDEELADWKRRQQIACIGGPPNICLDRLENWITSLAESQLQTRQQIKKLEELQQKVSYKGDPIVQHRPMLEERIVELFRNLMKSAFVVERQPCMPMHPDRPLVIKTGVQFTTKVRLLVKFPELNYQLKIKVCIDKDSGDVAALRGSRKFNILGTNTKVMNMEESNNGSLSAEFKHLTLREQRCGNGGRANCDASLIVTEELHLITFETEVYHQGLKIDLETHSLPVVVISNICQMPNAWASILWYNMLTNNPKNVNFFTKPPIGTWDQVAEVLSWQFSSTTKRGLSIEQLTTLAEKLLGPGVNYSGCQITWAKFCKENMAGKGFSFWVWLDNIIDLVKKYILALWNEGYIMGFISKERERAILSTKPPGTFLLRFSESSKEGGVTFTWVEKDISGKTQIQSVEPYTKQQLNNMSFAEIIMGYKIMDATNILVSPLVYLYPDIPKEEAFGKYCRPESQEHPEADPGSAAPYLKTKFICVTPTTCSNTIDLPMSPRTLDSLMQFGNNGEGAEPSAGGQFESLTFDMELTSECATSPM

How the values were obtained:
[1] = molecular target: Heat shock factor protein 1 (Homo sapiens) (UniProt Q00613); test: ATG_HSE_CIS: Attagene CIS-FACTORIAL HepG2 Assay for human Heat Shock Transcription Factor 1 (HSE) (AID 2282953); conditions: HepG2 HSE cis-reporter, Attagene RNA transcription; actives raise or lower the signal
Method in brief: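 After a 24 h incubation with test chemical, transfected HepG2 cells were harvested for RNA; reporter transcripts were measured by RT-PCR and capillary electrophoresis. Values reflect gain or loss of signal relative to DMSO.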

[2] = ATG_MRE_CIS: Attagene CIS-FACTORIAL HepG2 Assay for human Metal Responsive Element (MRE) (AID 2282954); conditions: HepG2 MRE cis-reporter transcription, Attagene multiplex; actives raise or lower the signal
Method in brief: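 Cells were transfected with cis-promoter reporter transcription units, then dosed for 24 h. RNA was reverse-transcribed, amplified, fluorescently labelled and resolved by capillary electrophoresis, and activity was fitted in both directions relative to DMSO.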

[3] = ATG_PBREM_CIS: Attagene CIS-FACTORIAL HepG2 Assay for human Phenobarbital-responsive Enhancer Module (PBREM) (AID 2282955); conditions: HepG2 PBREM cis-reporter, Attagene multiplexed transcription; actives raise or lower the signal
Method in brief: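 Endogenous transcription factor activity was read from reporter transcripts in transiently transfected human HepG2 liver cells after 24 h dosing. RT-PCR products were fluorescently labelled, HpaI-cut and sized by capillary electrophoresis; activity fitted bidirectionally against DMSO baseline.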

[4] = ATG_PXRE_CIS: Attagene CIS-FACTORIAL HepG2 Assay for human Pregnane X Receptor Element (PXRE) (AID 2282957); conditions: HepG2 Attagene CIS-FACTORIAL PXRE reporter, mRNA; actives raise or lower the signal
Method in brief: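 Reporter transcripts under endogenous PXR-responsive cis-regulation quantified from total RNA of transfected HepG2 cells 24 h post-dosing, via RT-PCR with fluorescent primer extension and capillary electrophoresis. Gain or loss of signal fitted against DMSO baseline.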

[5] = ATG_PPRE_CIS: Attagene CIS-FACTORIAL HepG2 Assay for human Peroxisome Proliferator-activated Response Element (PPRE) (AID 2282958); conditions: HepG2 PPRE cis-element reporter, Attagene transcription factor profiling; actives raise or lower the signal
Method in brief: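 Endogenous PPRE-driven transcription is measured in HepG2 cells carrying transfected multi-reporter constructs. Reporter transcripts are quantified by RT-PCR, HpaI digestion and capillary electrophoresis 24 h after dosing. DMSO baseline, bidirectional fit.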

[6] = ATG_Sox_CIS: Attagene CIS-FACTORIAL HepG2 Assay for human SRY-box transcription factor (SOX) (AID 2282960); conditions: HepG2 Attagene cis-factorial SOX reporter, mRNA; actives raise or lower the signal
Method in brief: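 Reporter transcripts, measured by RT-PCR and capillary electrophoresis of labelled fragments, report endogenous SOX transcription factor activity. Transiently transfected human HepG2 cells receive chemical for 24 h; changes in either direction are fitted relative to DMSO.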

[7] = molecular target: Transcription factor Sp1 (Homo sapiens) (UniProt P08047); test: ATG_Sp1_CIS: Attagene CIS-FACTORIAL HepG2 Assay for human Specificity Protein 1 (Sp1) (AID 2282961); conditions: HepG2 Sp1 cis-reporter transcription, actives raise or lower the signal
Method in brief: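 Read-out is reporter transcript level, measured by RT-PCR and fluorescent capillary electrophoresis after 24 h chemical treatment. System: transiently transfected HepG2 cells reporting endogenous transcription factor activity; gain or loss fitted against DMSO baseline.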

[8] = ATG_SREBP_CIS: Attagene CIS-FACTORIAL HepG2 Assay for human Sterol Regulatory Element Binding (SREBP) (AID 2282962); conditions: HepG2 Attagene cis-factorial SREBP reporter, mRNA; actives raise or lower the signal
Method in brief: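 Readout: fluorescent reporter-transcript peaks resolved by capillary electrophoresis after RT-PCR. Cells were human HepG2 carrying transfected cis-promoter reporter constructs, dosed for 24 h. Gain or loss of signal was fitted against DMSO controls.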

[9] = molecular target: Signal transducer and activator of transcription 3 (Homo sapiens) (UniProt P40763); test: ATG_STAT3_CIS: Attagene CIS-FACTORIAL HepG2 Assay for human Signal Transducer and Activator of Transcription 3 (STAT3) (AID 2282963); conditions: HepG2, Attagene cis-factorial STAT3 reporter transcription; actives raise or lower the signal
Method in brief: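 HepG2, MRTU-transfected, 24 h dosing. RNA → RT → PCR → FAM label → HpaI → CE. Bidirectional fit vs DMSO.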

[10] = ATG_TA_CIS: Attagene CIS-FACTORIAL HepG2 Assay for human TA Basal Promoter (AID 2282964); conditions: HepG2 Attagene CIS-factorial TA basal promoter reporter; actives raise or lower the signal
Method in brief: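 Multiplexed mRNA reporter assay, HepG2, 24 h. Reporter cDNA amplified, 6-FAM primer-extended, HpaI-cut, CE-sized; DMSO = negative control and baseline.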

Cc1c([N+](=O)[O-])cccc1[N+](=O)[O-]
outcome [1]: inactive | outcome [2]: inactive | outcome [3]: inactive | AC50 [4]: active: 52.1 µM | outcome [5]: inactive | outcome [6]: inactive | outcome [7]: inactive | outcome [8]: inactive | outcome [9]: inactive | outcome [10]: inactive

COP(C)(=O)OC
outcome [1]: inactive | outcome [2]: inactive | outcome [3]: inactive | AC50 [4]: active: 61.7 µM | outcome [5]: inactive | outcome [6]: inactive | outcome [7]: inactive | outcome [8]: inactive | outcome [9]: inactive | outcome [10]: inactive

O=[N+]([O-])OCC(CO[N+](=O)[O-])(CO[N+](=O)[O-])CO[N+](=O)[O-]
outcome [1]: inactive | outcome [2]: inactive | outcome [3]: inactive | outcome [4]: inactive | outcome [5]: inactive | outcome [6]: inactive | outcome [7]: inactive | outcome [8]: inactive | outcome [9]: inactive | outcome [10]: inactive

COc1ccc([N+](=O)[O-])cc1[N+](=O)[O-]
outcome [1]: inactive | outcome [2]: inactive | outcome [3]: inactive | AC50 [4]: active: 158 µM | outcome [5]: inactive | outcome [6]: inactive | outcome [7]: inactive | outcome [8]: inactive | outcome [9]: inactive | outcome [10]: inactive

CC(C)OP(C)(=O)OC(C)C
outcome [1]: inactive | outcome [2]: inactive | outcome [3]: inactive | outcome [4]: inactive | outcome [5]: inactive | outcome [6]: inactive | outcome [7]: inactive | outcome [8]: inactive | outcome [9]: inactive | outcome [10]: inactive

N#CBr
outcome [1]: inactive | outcome [2]: inactive | outcome [3]: inactive | outcome [4]: inactive | outcome [5]: inactive | outcome [6]: inactive | outcome [7]: inactive | outcome [8]: inactive | outcome [9]: inactive | outcome [10]: inactive

O=[N+]([O-])c1cccc([N+](=O)[O-])c1
outcome [1]: inactive | outcome [2]: inactive | outcome [3]: inactive | outcome [4]: inactive | outcome [5]: inactive | outcome [6]: inactive | outcome [7]: inactive | outcome [8]: inactive | outcome [9]: inactive | outcome [10]: inactive

Cc1ccc([N+](=O)[O-])cc1[N+](=O)[O-]
outcome [1]: inactive | outcome [2]: inactive | outcome [3]: inactive | outcome [4]: inactive | outcome [5]: inactive | outcome [6]: inactive | outcome [7]: inactive | outcome [8]: inactive | outcome [9]: inactive | outcome [10]: inactive

CC(C)N(CCO)C(C)C
outcome [1]: inactive | outcome [2]: inactive | outcome [3]: inactive | outcome [4]: inactive | outcome [5]: inactive | outcome [6]: inactive | outcome [7]: inactive | outcome [8]: inactive | outcome [9]: inactive | outcome [10]: inactive

Cc1ccc([N+](=O)[O-])c([N+](=O)[O-])c1
outcome [1]: inactive | outcome [2]: inactive | outcome [3]: inactive | outcome [4]: inactive | outcome [5]: inactive | outcome [6]: inactive | outcome [7]: inactive | outcome [8]: inactive | outcome [9]: inactive | outcome [10]: inactive

Cc1cccc([N+](=O)[O-])c1[N+](=O)[O-]
AC50 [1]: active: 107 µM | outcome [3]: inactive | outcome [4]: inactive | AC50 [5]: active: 3.16 µM | outcome [6]: inactive | outcome [7]: inactive | outcome [8]: inactive | outcome [9]: inactive | outcome [10]: inactive

CN(C)CCCl
outcome [1]: inactive | outcome [2]: inactive | outcome [3]: inactive | outcome [4]: inactive | outcome [5]: inactive | outcome [6]: inactive | outcome [7]: inactive | outcome [8]: inactive | outcome [9]: inactive | outcome [10]: inactive
